Source: patent US20140294856A1, “COMBINATION TREATMENT COMPRISING A HDAC6 INHIBITOR AND AN AKT INHIBITOR” (priority 2011, published 2014)

Sequences of proteins named here, by UniProt entry; tags and fusion partners are left off. A change or cut given only in a name is not applied to a line headed by its entry.
UniProt Q9UNQ0: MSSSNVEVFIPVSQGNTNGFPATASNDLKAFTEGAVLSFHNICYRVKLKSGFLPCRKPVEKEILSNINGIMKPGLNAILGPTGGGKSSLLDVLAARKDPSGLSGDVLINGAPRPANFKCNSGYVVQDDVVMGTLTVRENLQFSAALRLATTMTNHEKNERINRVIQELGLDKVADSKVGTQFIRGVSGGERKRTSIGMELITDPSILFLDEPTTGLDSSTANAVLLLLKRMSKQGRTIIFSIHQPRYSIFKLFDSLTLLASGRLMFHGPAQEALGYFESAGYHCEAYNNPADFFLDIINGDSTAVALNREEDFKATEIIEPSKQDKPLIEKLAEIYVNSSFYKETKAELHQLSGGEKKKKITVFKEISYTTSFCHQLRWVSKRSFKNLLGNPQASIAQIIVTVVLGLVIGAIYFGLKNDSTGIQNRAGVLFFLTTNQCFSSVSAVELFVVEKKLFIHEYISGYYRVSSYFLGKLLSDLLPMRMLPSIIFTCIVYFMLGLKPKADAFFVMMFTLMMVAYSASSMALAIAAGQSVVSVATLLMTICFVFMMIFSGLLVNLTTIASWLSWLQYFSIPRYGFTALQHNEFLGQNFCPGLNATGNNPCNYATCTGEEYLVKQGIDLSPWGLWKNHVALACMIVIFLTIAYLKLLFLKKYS

Target: ABCG2 (Homo sapiens, UniProt Q9UNQ0)

`O=C(CCCCCCC(=O)Nc1ccccc1)NO` [SAHA, suberanoyl hydroxamic acid] was tested, and the “reversal of resistance by FTC in MCF7-MX cells” value was 3.9 fold.
